Experimental data: patent publication US9416127B2, “Triazole carboxamides and uses thereof” (Hoffmann-La Roche Inc., priority 2012, dated 2016)

By UniProt entry, the sequences of proteins in these tests, tags left out.
UniProt Q923Y8, whole entry: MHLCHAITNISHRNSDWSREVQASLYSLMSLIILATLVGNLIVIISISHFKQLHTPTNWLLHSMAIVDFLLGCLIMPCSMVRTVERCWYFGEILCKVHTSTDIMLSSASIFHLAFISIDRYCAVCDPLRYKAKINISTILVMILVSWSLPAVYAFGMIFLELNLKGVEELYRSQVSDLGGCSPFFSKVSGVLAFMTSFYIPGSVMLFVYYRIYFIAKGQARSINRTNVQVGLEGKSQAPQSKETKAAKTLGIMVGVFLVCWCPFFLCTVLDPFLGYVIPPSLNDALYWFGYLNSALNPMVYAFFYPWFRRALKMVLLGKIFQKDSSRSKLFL

Target: mouse TAAR1 (Mus musculus (Mouse), UniProt Q923Y8)
Test: Radioligand binding assay on mouse TAAR1
Settings: mouse TAAR1, HEK-293 membranes; first value of mouse/rat cell
Description: Construction of TAAR Expression Plasmids and Stably Transfected Cell Lines
For the construction of expression plasmids the coding sequences of human, rat and mouse TAAR 1 were amplified from genomic DNA essentially as described by Lindemann et al.. The Expand High Fidelity PCR System (Roche Diagnostics) was used with 1.5 mM Mg^2+ and purified PCR products were cloned into pCR2.1-TOPO cloning vector (Invitrogen) following the instructions of the manufacturer. PCR products were subcloned into the pIRESneo2 vector (BD Clontech, Palo Alto, Calif.), and expression vectors were sequence verified before introduction in cell lines.
HEK293 cells (ATCC # CRL-1573) were cultured essentially as described by Lindemann et al. (2005). […]
HEK-293 cells stably expressing mouse TAAR1 were maintained at 37° C. and 5% CO2 in DMEM high glucose medium, containing fetal calf serum (10%, heat inactivated for 30 min at 56° C.), penicillin/streptomycin (1%), and 375 μg/ml geneticin (Gibco). […] With each new membrane batch the dissociation constant (Kd) was determined via a saturation curve. […] After addition of 45 μl of Microscint 40 (PerkinElmer) the Unifilter-96 plate was sealed and after 1 hr the ratioactivity counted using a TopCount Microplate Scintillation Counter (Packard Instrument Company).

## O=C(Nc1ccc(C2CCCNC2)cc1)c1cnn(-c2ccccc2)n1 (racemic) [Example 35, (RS)-2-Phenyl-N-(4-(piperidin-3-yl)phenyl)-2H-1,2,3-triazole-4-carboxamide]
  Ki: 0.0019 µM
